Test results as given in patent EP4843986A1, “ANGIOTENSIN II RECEPTOR ANTAGONIST AND USE THEREOF IN TREATMENT OF PERIPHERALLY-INDUCED NEUROPATHIC PAIN” (dated 2026).

What was measured:
[1] = tested on: SD rat spinal nerve ligation model; assay: Rat spinal nerve ligation (SNL) model, mechanical allodynia (Von Frey); conditions: 200 mg/kg intragastric; at 2 h after administration; Day 14 post-surgery; vs vehicle control
Experimental: (§1) SD rats were fully anesthetized via intraperitoneal injection of sodium pentobarbital (50 mg/kg). The lumbar surgical region of each animal was shaved, and the skin was disinfected three times with iodophor and 70% ethanol. Surgery was initiated once the skin had dried, and aseptic operations were adopted throughout the surgical procedure. The left L5 and L6 spinal nerves were isolated and tightly ligated with 6-0 silk sutures. The wound was sutured to complete the establishment of the rat SNL model.
(§2) Starting on day 11 post-surgery, animals were acclimated to the experimental environment for 15 minutes per day over 3 consecutive days.
(§3) On Day 13 post-surgery, the baseline mechanical allodynia threshold of the rats was measured. […]
(§4) On Day 14 post-surgery, mechanical allodynia tests were performed using Von Frey filaments at 0 hour before administration, as well as at 2, 4, and 6 hours after administration. Mechanical allodynia was quantified as the paw withdrawal threshold (PWT) in rat behavioral tests and was calculated using the formula below: 50% response threshold(g) = (10^((Xf+kδ)))/10,000 [formula] […]
(§5) Data were collected using Excel software. Data were analyzed using Prism 6.01 (GraphPad Software, Inc.) (two-way ANOVA followed by Bonferroni multiple comparison test).

[2] = tested on: SD rat model of chronic constriction injury of the sciatic nerve; assay: Rat chronic constriction injury (CCI) of the sciatic nerve model, mechanical allodynia (Von Frey); conditions: 200 mg/kg intragastric; at either 2 h or 4 h after administration; vs vehicle control
Experimental: as §1, with “sciatic nerve was isolated,” for “L5”, “four loose ligatures” for “L6 spinal nerves”, “tied approximately 7 mm upstream proximal to the nerve bifurcation” for “isolated and tightly ligated”, “4-0 chromic catgut sutures, spaced about 1 mm apart.” for “6-0 silk sutures.”, “CCI” for “SNL”
as §2, §3, §4, §5

[3] = tested on: rat diabetic foot pain model; assay: Rat diabetic foot pain model induced by high-fat and high-sugar diet combined with STZ (Von Frey, 50% PWT); conditions: 100 mg/kg oral gavage; at 2, 4, and 6 hours after administration; vs vehicle control
Experimental: Rats were acclimated for one week. After being fed a high-fat and high-sugar diet for 4 weeks, plantar pain testing was performed once using Von Frey filaments in rats, and rats with a value higher than 10 g were screened out. The rats were fasted for 16 hours with free access to water, followed by a single intraperitoneal injection of STZ at 40 mg/kg (for rats weighing 220-250 g) or 50 mg/kg (for rats weighing 180-220 g). After 72 hours, random blood glucose was detected. Blood glucose ≥16.7 mmol/L indicated successful establishment of diabetic model. Rats as successfully established diabetes models were subjected to plantar pain testing training using Von Frey filaments once a week. After 4 or 5 weeks, rats whose 50% PWT fell within the range of 1-6 g were selected as diabetic foot pain model animals. The rats were randomly divided into 7 groups based on the pre-dosing pain threshold: vehicle control (ddH2O), gabapentin 100 mg/kg, A1 (12.5, 25, 50, 100, and 200 mg/kg), with 10 rats per group. The administration volume was 10 mL/kg, and all test articles were given via oral gavage. Pain testing was performed using Von Frey filaments at 2, 4, and 6 hours after dosing, and pharmacodynamic efficacy was evaluated based on the change in 50% PWT of the rats. […]
All measurement data were expressed as mean + SEM. […]

[4] = tested on: mouse spared nerve injury (SNI) model; assay: Mouse spared nerve injury (SNI) model, paw withdrawal threshold (Electronic von Frey); conditions: 50 mg/kg intragastric; at both 2 h and 4 h after administration; vs vehicle control
Excerpt: • 1) Mice were fully anesthetized via isoflurane inhalation and fixed in a prone position on an operating table to fully expose the lateral gluteal region. Hair on the left hind limb was shaved, and the skin was disinfected via an alcohol wipe. Aseptic operations were adopted throughout the surgical procedure. For the SNI surgery group: An incision was made parallel to the sciatic nerve along the femur to expose the sciatic nerve trunk until tibial nerve, common peroneal nerve, and sural nerve are visible. The tibial nerve and common peroneal nerve were tightly ligated with absorbable surgical suture (8-0). […] The remaining mice were randomly divided into 5 groups (SNI model groups) according to their body weights and PWT values: vehicle control (sterile water for injection), Gabapentin 50 mg/kg, A1 50 mg/kg, A1 100 mg/kg, and A1 200 mg/kg, with 12 mice per group and an intragastric administration volume of 10 mL/kg. • 4) On day 12 post-surgery, paw withdrawal thresholds were measured using an Electronic von Frey Anesthesiometer at 0 h before administration, 2 h after administration, and 4 h after administration. […] The reading recorded by the instrument at this moment was defined as the mechanical pain reaction threshold in grams. […]
The experimental results were expressed as mean ± standard deviation. Data of each group were statistically analyzed using GraphPad Prism 8.0 software package. […]

Compound	spinal nerve ligation-induced mechanical allodynia (PWT) [1]	mechanical allodynia induced by sciatic nerve constriction (PWT) [2]	diabetes-induced peripheral neuralgia (50% PWT) [3]	sciatic nerve injury-induced mechanical allodynia (PWT) [4]
COc1ccc2c(c1OCc1ccccc1)C[C@@H](C(=O)O)N(C(=O)C(c1ccccc1)c1ccccc1)C2	significantly inhibited	failed to inhibit		
NCC1(CC(=O)O)CCCCC1			significantly alleviated	inhibited
